Non-standard residues stand in square brackets, D forms with d. Residues, ends and D or L forms follow the SMILES beside them. pT = C[C@@H](OP(=O)(O)O)[C@H](N)C(=O)O
Target: PLK1 PBD (367–603) (Homo sapiens, UniProt P53350)
Assay: Fluorescence polarization competitive binding assay, PLK1 PBD
Conditions: PLK1 vs PLK3 PBD, accounting for 5-fold difference in tracer affinity

By UniProt entry, the sequences of proteins in these tests, tags left out. Residues count along the entry.
UniProt P53350, 367-603: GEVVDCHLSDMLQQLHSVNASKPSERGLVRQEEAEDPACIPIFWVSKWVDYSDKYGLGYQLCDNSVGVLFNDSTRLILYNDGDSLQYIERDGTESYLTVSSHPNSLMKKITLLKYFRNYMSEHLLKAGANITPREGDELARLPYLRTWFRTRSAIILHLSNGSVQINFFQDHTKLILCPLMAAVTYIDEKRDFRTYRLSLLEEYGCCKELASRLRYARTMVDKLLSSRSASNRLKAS

CC(=O)N1CCC[C@H]1C(=O)N[C@@H](CC(C)C)C(=O)N[C@@H](Cc1c[nH]cn1)C(=O)N[C@@H](CO)C(=O)N[C@H](C(=O)N[C@@H](C)C(=O)O)[C@@H](C)OP(=O)(O)O [Compound 6, Ac-PLHS[pT]A] (Ac-PLHS[pT]A-OH)
Selectivity Index: >6500
